According to publication PMC5520492, “Inhibition of DNA2 nuclease as a therapeutic strategy targeting replication stress in cancer cells” (Oncogenesis, 2017):

Test system: U2OS cells
Test: Cell-based viability/proliferation screen, DAPI staining and automated microscopy
Conditions: IC50 n.d.

## COC1=C(N)C(=O)c2nc(-c3nc(C(=O)O)c(C)c(-c4ccc(OC)c(OC)c4O)c3N)ccc2C1=O
  Cell Based screening remark: n.d. (cytotoxic)
